Values quoted from earlier work as cited in patent US20060252670A1, “Method of reducing drug-induced adverse side effects in a patient” (Intercept Pharmaceuticals Inc., priority 2004, published 2006).

Conditions: cited from earlier work

insulin
incidence of edema (insulin alone (Raskin et al. 2001)): 4.7%
incidence of edema (insulin alone (Rubin et al. 1999)): 7.0%

Like-named read-outs stand apart in the source and are kept apart here.
